Test results taken from ChEMBL document CHEMBL1134466 (J Med Chem, 2001).

Assays:
Mus musculus [1] = assay: Half life period after (ip) administration of 50 mg/kg in B6D2F1 mice; conditions: in vivo
Mus musculus [2] = assay: Toxicity in female B6D2F1 mice measured as BUN when given 0 mg/kg daily * 5 (ip); conditions: in vivo
Mus musculus [3] = assay: Toxicity in female B6D2F1 mice measured as BUN when given 12.5 mg/kg daily * 5 (ip); conditions: in vivo
Mus musculus [4] = assay: Toxicity in female B6D2F1 mice measured as BUN when given 25 mg/kg daily * 5 (ip); conditions: in vivo
Mus musculus [5] = assay: Toxicity in female B6D2F1 mice measured as alanine aminotransferase when given 12.5 mg/kg daily * 5 (ip); conditions: in vivo
Mus musculus [6] = assay: Toxicity in female B6D2F1 mice measured as alanine aminotransferase when given 2.5 mg/kg daily * 5 (ip); conditions: in vivo
Mus musculus [7] = assay: Toxicity in female B6D2F1 mice measured as alanine aminotransferase when given 25 mg/kg daily * 5 (ip); conditions: in vivo
Mus musculus [8] = assay: Toxicity in female B6D2F1 mice measured as alanine aminotransferase when given 0 mg/kg daily * 5 (ip); conditions: in vivo
Mus musculus [9] = assay: Toxicity to bone marrow granulocyte/macrophage progenitors per femur at a dose of 100 mg/kg (ip); conditions: in vivo
Mus musculus [10] = assay: Toxicity to bone marrow granulocyte/macrophage progenitors per femur at a dose of 25 mg/kg (ip); conditions: in vivo
Mus musculus [11] = assay: Toxicity to bone marrow granulocyte/macrophage progenitors per femur at a dose of 30 mg/kg (ip); conditions: in vivo
Mus musculus [12] = assay: Antitumor activity in MX-1 Xenograft Model at a dose of 12.5 mg/kg (ip) measured as percent growth inhibition
Mus musculus [13] = assay: Antitumor activity in MX-1 Xenograft Model at a dose of 25 mg/kg (ip) measured as percent growth inhibition
Mus musculus [14] = assay: Antitumor activity in MX-1 Xenograft Model at a dose of 40 mg/kg (po) measured as percent growth inhibition
Mus musculus [15] = assay: Toxicity in female B6D2F1 mice measured as RBC count when given 2.5 mg/kg daily * 5 (ip); conditions: in vivo
Mus musculus [16] = assay: Toxicity in female B6D2F1 mice measured as RBC count when given 0 mg/kg daily * 5 (ip); conditions: in vivo
Mus musculus [17] = assay: Antitumor activity against B16 murine melanoma at a dose of 12.5 mg/kg (ip) measured as 60-day survivors (% LTS)
Mus musculus [18] = assay: Antitumor activity against B16 murine melanoma at a dose of 25 mg/kg (ip) measured as 60-day survivors (% LTS)
Mus musculus [19] = assay: Antitumor activity against L1210 cyclophosphamide resistant melanoma at a dose of 25 mg/kg (ip) measured as 60-day survivors (% LTS)
Mus musculus [20] = assay: Antitumor activity against L1210 wild type melanoma at a dose of 25 mg/kg (ip) measured as 60-day survivors (% LTS)
Mus musculus [21] = assay: Toxicity in female B6D2F1 mice measured as spleen wt when given 2.5 mg/kg daily * 5 (ip); conditions: in vivo
Mus musculus [22] = assay: Toxicity in female B6D2F1 mice measured as spleen wt when given 25 mg/kg daily * 5 (ip); conditions: in vivo
Mus musculus [23] = assay: Toxicity in female B6D2F1 mice measured as thymus wt when given 0 mg/kg daily * 5 (ip); conditions: in vivo
Mus musculus [24] = assay: Toxicity in female B6D2F1 mice measured as thymus wt when given 12.5 mg/kg daily * 5 (ip); conditions: in vivo
Mus musculus [25] = assay: Toxicity in female B6D2F1 mice measured as thymus wt when given 2.5 mg/kg daily * 5 (ip); conditions: in vivo
Mus musculus [26] = assay: Toxicity in female B6D2F1 mice measured as thymus wt when given 25 mg/kg daily * 5 (ip); conditions: in vivo
Mus musculus [27] = assay: Antitumor activity against B16 murine melanoma at a dose of 12.5 mg/kg (ip) measured as percent weight change on day 8
Mus musculus [28] = assay: Antitumor activity against B16 murine melanoma at a dose of 25 mg/kg (ip) measured as percent weight change on day 8
Mus musculus [29] = assay: Antitumor activity against L1210 wild type murine melanoma at a dose of 12.5 mg/kg (ip) measured as increased life span (% T/C)
Mus musculus [30] = assay: Antitumor activity against B16 murine melanoma at a dose of 12.5 mg/kg (ip) measured as increased life span (% T/C)
Mus musculus [31] = assay: Antitumor activity against B16 murine melanoma at a dose of 25 mg/kg (ip) measured as increased life span (% T/C)
Mus musculus [32] = assay: Toxicity in female B6D2F1 mice measured as platelet count when given 0 mg/kg daily * 5 (ip); conditions: in vivo
Mus musculus [33] = assay: Toxicity in female B6D2F1 mice measured as platelet count when given 12.5 mg/kg daily * 5 (ip); conditions: in vivo
Mus musculus [34] = assay: Antitumor activity against L1210 cyclophosphamide resistant murine melanoma at a dose of 12.5 mg/kg (ip) measured as percent weight change on day 8
Mus musculus [35] = assay: Antitumor activity in MX-1 Xenograft Model at a dose of 12.5 mg/kg (ip) measured as percent weight change on day 8
Mus musculus [36] = assay: Antitumor activity in MX-1 Xenograft Model at a dose of 25 mg/kg (ip) measured as percent weight change on day 8
Mus musculus [37] = assay: Antitumor activity in MX-1 Xenograft Model at a dose of 40 mg/kg (po) measured as percent weight change on day 8
Mus musculus [38] = assay: Antitumor activity in MX-1 Xenograft Model at a dose of 12.5 mg/kg (ip) measured as number of mice with partial tumor regression
Mus musculus [39] = assay: Antitumor activity in MX-1 Xenograft Model at a dose of 25 mg/kg (ip) measured as number of mice with partial tumor regression
Mus musculus [40] = assay: Antitumor activity in MX-1 Xenograft Model at a dose of 40 mg/kg (po) measured as number of mice with partial tumor regression
Mus musculus [41] = assay: Toxicity in female B6D2F1 mice measured as spleen wt when given 12.5 mg/kg daily * 5 (ip); conditions: in vivo
Mus musculus [42] = assay: Toxicity in female B6D2F1 mice measured as alkaline phosphatase when given 0 mg/kg daily * 5 (ip); conditions: in vivo
Mus musculus [43] = assay: Toxicity in female B6D2F1 mice measured as spleen wt when given 0 mg/kg daily * 5 (ip); conditions: in vivo
Mus musculus [44] = assay: Antitumor activity in MX-1 Xenograft Model at a dose of 12.5 mg/kg (ip) measured as number of mice with complete tumor regression
Mus musculus [45] = assay: Antitumor activity in MX-1 Xenograft Model at a dose of 25 mg/kg (ip) measured as number of mice with complete tumor regression
Mus musculus [46] = assay: Antitumor activity in MX-1 Xenograft Model at a dose of 40 mg/kg (po) measured as number of mice with complete tumor regression
Mus musculus [47] = assay: Toxicity in female B6D2F1 mice measured as platelet count when given 2.5 mg/kg daily * 5 (ip); conditions: in vivo
Mus musculus [48] = assay: Toxicity in female B6D2F1 mice measured as platelet count when given 25 mg/kg daily * 5 (ip); conditions: in vivo
Mus musculus [49] = assay: Toxicity in female B6D2F1 mice measured as alkaline phosphatase when given 2.5 mg/kg daily * 5 (ip); conditions: in vivo
Mus musculus [50] = assay: Toxicity in female B6D2F1 mice measured as alkaline phosphatase when given 25 mg/kg daily * 5 (ip); conditions: in vivo
Mus musculus [51] = assay: Toxicity in female B6D2F1 mice measured as WBC count when given 0 mg/kg daily * 5 (ip); conditions: in vivo
Mus musculus [52] = assay: Toxicity in female B6D2F1 mice measured as WBC count when given 12.5 mg/kg daily * 5 (ip); conditions: in vivo
Mus musculus [53] = assay: Toxicity in female B6D2F1 mice measured as WBC count when given 25 mg/kg daily * 5 (ip); conditions: in vivo

For `NP(=O)(OCc1ccc([N+](=O)[O-])s1)N(CCBr)CCBr` (stereo not drawn), the T1/2 (Mus musculus [1]) was 4.3 min, the BUN (Mus musculus [2]) was 23.4 mg/dL and 18.4 mg/dL and the BUN (Mus musculus [3]) was 19.2 mg/dL. The BUN (Mus musculus [4]) was 17 mg/dL, the ALT. (Mus musculus [5]) was 27 U l-1 and the ALT. (Mus musculus [6]) was 34 U l-1. For the same molecule, the ALT. (Mus musculus [7]) was 43 U l-1, the ALT. (Mus musculus [8]) was 22 U l-1 and the Control (Mus musculus [9]) was 45%. For the same molecule, the Control (Mus musculus [10]) was 14%, the Control (Mus musculus [11]) was 87% and the growth inhibition (GI) (Mus musculus [12]) was 98%. For the same molecule, the growth inhibition (GI) (Mus musculus [13]) was > 99%, the growth inhibition (GI) (Mus musculus [14]) was 87% and the RBC x 10e 3 (Mus musculus [15]) was 7.5 µL⁻¹. For the same molecule, the RBC x 10e 3 (Mus musculus [16]) was 10.1 µL⁻¹ and 8.6 µL⁻¹ and 9.7 µL⁻¹, the LTS (Mus musculus [17]) was 30% and the LTS (Mus musculus [18]) was 20%. For the same molecule, the LTS (Mus musculus [19]) was 10%, the LTS (Mus musculus [20]) was 70% and the Weight (Mus musculus [21]) was 91 mg. The Weight (Mus musculus [22]) was 23 mg, the Weight (Mus musculus [23]) was 41 mg and the Weight (Mus musculus [24]) was 32 mg. The Weight (Mus musculus [25]) was 62 mg, the Weight (Mus musculus [26]) was 7 mg and the Weight change (Mus musculus [27]) was 2%. The Weight change (Mus musculus [28]) was 17%, the T/C (Mus musculus [29]) was 139% and the T/C (Mus musculus [30]) was 186%. The T/C (Mus musculus [31]) was 180%, the Platelets x10e-3 (Mus musculus [32]) was 890 µL⁻¹ and the Platelets x10e-3 (Mus musculus [33]) was 1210 µL⁻¹. It also gave a Weight change (Mus musculus [34]) of 5%, a Weight change (Mus musculus [35]) of 3% and a Weight change (Mus musculus [36]) of 8%. The Weight change (Mus musculus [37]) was 7%, the No. partial (Mus musculus [38]) was 4 and the No. partial (Mus musculus [39]) was 4. For the same molecule, the No. partial (Mus musculus [40]) was 2, the Weight (Mus musculus [41]) was 67 mg and the alkaline phosphatase activity (Mus musculus [42]) was 143 U l-1 and 133 U l-1. It also gave a Weight (Mus musculus [43]) of 64 mg, a No. total (Mus musculus [44]) of 0 and a No. total (Mus musculus [45]) of 6. The No. total (Mus musculus [46]) was 0, the Platelets x10e-3 (Mus musculus [47]) was 737 µL⁻¹ and the Platelets x10e-3 (Mus musculus [48]) was 523 µL⁻¹. The alkaline phosphatase activity (Mus musculus [49]) was 144 U l-1, the alkaline phosphatase activity (Mus musculus [50]) was 63 U l-1 and the WBC x10e-3 (Mus musculus [51]) was 6.7 µL⁻¹ and 5.6 µL⁻¹. For the same molecule, the WBC x10e-3 (Mus musculus [52]) was 3.9 µL⁻¹ and the WBC x10e-3 (Mus musculus [53]) was 2.1 µL⁻¹.

“And” between values parts separate entries of the source, which are not always exact repeats. Identical values can stand only once.
